# Assay results from patent publication US12702676B2, “Fosfomycin dosing regimens” (priority 2017, dated 2026).
# Assay: ZEUS Phase 2/3 trial, safety (adverse events)
# Settings: safety population (n=464)
substance,measurement,value
piperacillin/tazobactam [P-T],"treatment-emergent adverse events (TEAEs) observed, % of patients",32.0%
